scFv variants of Ab-91 (heavy chain) against a SARS-CoV-2 spike peptide

Target: peptide PDVDLGDISGINAS, taken from heptad repeat 2 (HR2) of SARS-CoV-2 spike.

Each scFv is VL, a 15-residue (Gly4Ser)3 linker, VH, as in the parent Ab-91, and differs from it in the CDRs of the heavy chain only.
VL: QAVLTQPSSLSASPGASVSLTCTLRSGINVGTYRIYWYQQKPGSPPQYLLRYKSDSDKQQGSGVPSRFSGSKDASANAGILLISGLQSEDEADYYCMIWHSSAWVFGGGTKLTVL
VH: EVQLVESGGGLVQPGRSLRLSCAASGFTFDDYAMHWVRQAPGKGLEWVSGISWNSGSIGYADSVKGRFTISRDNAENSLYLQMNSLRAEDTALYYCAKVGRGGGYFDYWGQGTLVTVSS

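The starting antibody came from a phage panning campaign against this peptide. The library (AAYL51) carries one to three amino acid substitutions per variant, with no insertions or deletions. The assay is AlphaSeq: two haploid yeast populations carry antibody and antigen on their surface. Pairs that bind mate more often; barcode pairs of the diploids are counted by sequencing. Each replicate has its own calibration line, from reference interactions of the BCL2 family. Mating was done three times.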

Sequences are complete VH domains.
The read-out is the apparent dissociation constant on a log10 scale (nM): the lower, the stronger.
Replicates are averaged; those with no signal do not enter the mean.
"nd" means that the variant was in the library but no mating with the target was seen in any replicate; the authors take this as a sign of poor binding, and no number exists.

VH	mean, log10 nM	detected
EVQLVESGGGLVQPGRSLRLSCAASGFTFDDCAMHWVRQAPGKGLEWVSGISWNSGSIGTADRVKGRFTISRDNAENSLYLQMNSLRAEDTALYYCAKVGRGGGYFDYWGQGTLVTVSS	4.16	3/3
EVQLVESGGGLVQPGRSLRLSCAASDFTFDDYAMHWVRQAPGKGLEWVSGISWNSGSIGYVDSVSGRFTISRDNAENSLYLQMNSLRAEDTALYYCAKVGRGGGYFDYWGQGTLVTVSS	nd	0/3
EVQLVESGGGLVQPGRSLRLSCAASGFTFDDYAMHWVRQAPGKGLEWVSGISWNSGGIGYADSVIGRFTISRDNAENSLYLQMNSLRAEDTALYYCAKVGRGGGCFDYWGQGTLVTVSS	4.11	3/3
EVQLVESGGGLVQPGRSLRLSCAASGFTFDDMAMHWVRQAPGKGLEWVSGISWNSGSIGYADVVKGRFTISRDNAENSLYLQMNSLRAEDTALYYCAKVGRGGFYFDYWGQGTLVTVSS	4.36	3/3
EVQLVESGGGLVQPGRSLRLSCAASGFTFDDYAMLWVRQAPGKGLEWVSGISWNSWSIGYADSVKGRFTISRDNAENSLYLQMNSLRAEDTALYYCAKVTRGGGYFDYWGQGTLVTVSS	nd	0/3
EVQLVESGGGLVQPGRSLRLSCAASGFTFDDVAMHWVRQAPGKGLEWVSGISWNSGSIGYAWSVKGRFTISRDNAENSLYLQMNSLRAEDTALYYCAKQGRGGGYFDYWGQGTLVTVSS	5.60	1/3
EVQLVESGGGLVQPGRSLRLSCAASGFTFDQYAMFWVRQAPGKGLEWVSGISWNSMSIGYADSVKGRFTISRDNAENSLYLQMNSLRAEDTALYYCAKVGRGGGYFDYWGQGTLVTVSS	nd	0/3
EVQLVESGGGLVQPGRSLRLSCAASGFRFDDRAMHWVRQAPGKGLEWVSGISWNSGSIGYADSVKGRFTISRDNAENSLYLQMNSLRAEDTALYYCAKVGDGGGYFDYWGQGTLVTVSS	4.39	1/3
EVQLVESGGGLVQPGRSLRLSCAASGFTFDDYAMFWVRQAPGKGLEWVSGISWNSHSIGYVDSVKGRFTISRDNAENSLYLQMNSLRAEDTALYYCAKVGRGGGYFDYWGQGTLVTVSS	nd	0/3
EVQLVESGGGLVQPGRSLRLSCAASGFTFDDYAMHWVRQAPGKGLEWVSGIVWYSGSIGYADSVKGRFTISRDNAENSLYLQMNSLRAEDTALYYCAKVGRGGGYFDYWGQGTLVTVSS	nd	0/3
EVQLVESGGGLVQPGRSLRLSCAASGFTFDDYAMHWVRQAPGKGLEWVSGFSWNSGSIGYADSNKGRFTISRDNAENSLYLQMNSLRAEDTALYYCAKVGRGLGYFDYWGQGTLVTVSS	5.43	2/3
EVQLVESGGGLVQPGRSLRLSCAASGFTFKDYTMHWVRQAPGKGLEWVSGISWNSGSNGYADSVKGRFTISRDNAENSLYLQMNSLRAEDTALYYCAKVGRGGGYFDYWGQGTLVTVSS	4.67	2/3
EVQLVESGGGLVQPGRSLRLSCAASGFTVFDYAMHWVRQAPGKGLEWVSGISWNSLSIGYADSVKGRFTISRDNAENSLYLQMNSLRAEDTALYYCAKVGRGGGYFDYWGQGTLVTVSS	4.09	3/3

Second part, the sequence after the result:

mean, log10 nM	detected	VH
3.14	2/3	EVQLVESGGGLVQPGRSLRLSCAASGFTFDDYDMHWVRQAPGKGLEWVSGISWNSGSIGYVDSVKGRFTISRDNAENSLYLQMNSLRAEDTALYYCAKVGRYGGYFDYWGQGTLVTVSS
5.19	2/3	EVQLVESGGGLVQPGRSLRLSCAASGFTFDDYAMHWVRQAPGKGLEWVSGIVWNSGSIGYADSVKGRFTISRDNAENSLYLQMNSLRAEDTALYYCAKVGRGGGYCDWWGQGTLVTVSS
3.66	1/3	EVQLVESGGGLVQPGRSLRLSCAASGFTFDDYAMHWVRQAPGKGLEWVSGISWNFGSIGYADSVKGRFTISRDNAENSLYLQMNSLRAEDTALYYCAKVGRYGGYFDYWGQGTLVTVSS
5.19	2/3	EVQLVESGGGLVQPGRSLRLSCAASGFTFDDYAMHWVRQAPGKGLEWVSGISWNSGKIGYADSVKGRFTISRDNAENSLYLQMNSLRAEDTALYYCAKIGRGGSYFDYWGQGTLVTVSS
4.21	1/3	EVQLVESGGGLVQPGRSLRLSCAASGFTFDMYAMHWVRQAPGKGLEWVSGIHWNSGSTGYADSVKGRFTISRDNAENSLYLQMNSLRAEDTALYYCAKVGRGGGYFDYWGQGTLVTVSS
4.94	2/3	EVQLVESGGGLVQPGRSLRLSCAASGFTFDDYAMHWVRQAPGKGLEWVSGISWNSGPIGYADSVNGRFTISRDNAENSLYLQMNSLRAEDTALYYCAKVGRGGGHFDYWGQGTLVTVSS
5.27	3/3	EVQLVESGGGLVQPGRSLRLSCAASGFTFDDYACHWVRQAPGKGLEWVSGISWNSGSPGYADSVKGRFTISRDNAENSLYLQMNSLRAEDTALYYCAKVGRGGGYFDNWGQGTLVTVSS
3.94	2/3	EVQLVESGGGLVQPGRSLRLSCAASGFIFDDYAMHWVRQAPGKGLEWVSGISDNSGSIGYADSVKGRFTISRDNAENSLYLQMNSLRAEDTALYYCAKVGRGGGVFDYWGQGTLVTVSS
5.02	2/3	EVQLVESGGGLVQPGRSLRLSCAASGFTFDDEAMHWVRQAPGKGLEWVSGISWNSGSIGYADEVKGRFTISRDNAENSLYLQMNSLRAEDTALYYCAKVGRDGGYFDYWGQGTLVTVSS
4.71	1/3	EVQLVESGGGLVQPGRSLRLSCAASGFTFDDRAMHWVRQAPGKGLEWVSGISWNSGSIGYADSVGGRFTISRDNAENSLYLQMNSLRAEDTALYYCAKVGRGGGYWDYWGQGTLVTVSS
0.33	3/3	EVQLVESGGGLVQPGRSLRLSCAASGFTFQDYAMHWVRQAPGKGLEWVSGISGNSGSDGYADSVKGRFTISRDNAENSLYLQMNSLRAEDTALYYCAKVGRGGGYFDYWGQGTLVTVSS
nd	0/3	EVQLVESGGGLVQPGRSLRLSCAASQFTFDDYAMHWVRQAPGKGLEWVSGISWNSGSIGYLDSVKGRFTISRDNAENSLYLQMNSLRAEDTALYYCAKVGRGGGYFDPWGQGTLVTVSS
nd	0/3	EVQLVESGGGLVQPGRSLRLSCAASGFTFDDYADHWVRQAPGKGLEWVSGISWNSGSIGYADSVKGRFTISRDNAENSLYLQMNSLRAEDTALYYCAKCGRGGGYFRYWGQGTLVTVSS

Top 2 of the variants detected in all replicates, tightest first:

VH	mean, log10 nM	detected
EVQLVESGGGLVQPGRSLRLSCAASGFTFQDYAMHWVRQAPGKGLEWVSGISGNSGSDGYADSVKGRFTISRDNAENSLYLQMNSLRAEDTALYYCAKVGRGGGYFDYWGQGTLVTVSS	0.33	3/3
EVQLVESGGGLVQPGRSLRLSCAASGFTVFDYAMHWVRQAPGKGLEWVSGISWNSLSIGYADSVKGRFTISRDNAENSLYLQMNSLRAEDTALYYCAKVGRGGGYFDYWGQGTLVTVSS	4.09	3/3

Empty control strains, which show no peptide, gave a signal in 21% of pairings with library AAYL51; the median was 4.54 and 95% of these signals were weaker than 3.26. No background was subtracted.

Data: MIT Lincoln Laboratory AlphaSeq set, Engelhart et al. 2022, doi:10.1038/s41597-022-01779-4, as distributed in FLAb.